Test results reported in BindingDB's records for doi:10.1111/j.1747-0285.2010.00965.x (Ataturk University, 2010).

Target: Carbonic anhydrase 2 (Homo sapiens, UniProt P00918)
Test: Esterase Activity Assay
Details: pH 7.4; 25 °C

Question: For O=C(O)c1ccc(O)cc1 [4-Hydroxybenzoate, III], which Ki is on record?
Answer: 675 µM
